Results on five compounds are retold here after article PMC6014687 (2016).

The structures appear in SMILES notation. In brackets after ≈: the same amount, converted by molar mass.

A short description of series [1]: in vitro. Particulars: male, CD1, mouse, microsomes, pH 7.4.
Series [2] can be described thus: physchem. The following applies: pH 7.4.
The conditions of series [3]: pH 7.4.
A short description of series [4]: physchem. The following applies: pH 7.4. The source holds these as a separate data set.

Broadly, the microsomal CLint is the capacity of the preparation to metabolise the compound, expressed as a volume cleared per time. Lower therefore signals greater metabolic stability. Usually chromatographic logD stands for a lipophilicity value derived from retention on a column. A low value points to a more hydrophilic compound. Consider `Cc1ccc2cc(C(=O)Nc3cc(NC(=O)c4ccc5c(c4)OCCO5)ccc3C)ccc2n1` [Compound 1, N-(5-(2,3-Dihydrobenzo[b][1,4]dioxine-6-carboxamido)-2-methylphenyl)-2-methylquinoline-6-carboxamide], for which the microsomal CLint at 1 µM in series [1] was 35 µL/min/mg. Also, in series [2], the chromatographic logD was determined as 2.6.

The term solubility (kinetic) denotes the concentration staying in solution when a stock, usually in DMSO, is diluted into the medium. Regarding `Cc1ccc(NC(=O)c2ccc3c(c2)OCCO3)cc1NC(=O)c1ccc2nc(OCCCN(C)C)ccc2c1` [Compound 22, N-(5-(2,3-Dihydrobenzo[b][1,4]dioxine-6-carboxamido)-2-methylphenyl)-2-(3-(dimethylamino)propoxy)quinoline-6-carboxamide], the decrease in lipophilicity in series [3] is given as 1.4 log unit. This compound also displayed a microsomal CLint at 1 µM in series [1] of 170 µL/min/mg. Also, in series [4], the kinetic solubility at 2 h, 100 µM is 90 µM (≈ 48.7 µg/mL). The same compound registered a chromatographic logD in series [2] of 2.

On to `COCCOc1ccc2cc(C(=O)Nc3cc(NC(=O)c4ccc5c(c4)OCCO5)ccc3C)ccc2n1` [Compound 21, N-(5-(2,3-Dihydrobenzo[b][1,4]dioxine-6-carboxamido)-2-methylphenyl)-2-(2-methoxyethoxy)quinoline-6-carboxamide], for which the microsomal CLint at 1 µM in series [1] turned out to be 92 µL/min/mg. Besides, the kinetic solubility at 2 h, 100 µM in series [4] was determined as 5 µM (≈ 2.57 µg/mL). Further, in series [2], the chromatographic logD amounted to 3.3.

`Cc1ccc(NC(=O)c2ccc3c(c2)OCCO3)cc1NC(=O)c1ccc2nc(OCCCN3CCOCC3)ccc2c1` [Compound 23, N-(5-(2,3-Dihydrobenzo[b][1,4]dioxine-6-carboxamido)-2-methylphenyl)-2-(3-morpholinopropoxy)quinoline-6-carboxamide] displayed a microsomal CLint at 1 µM in series [1] of 76 µL/min/mg. This compound came in with a kinetic solubility at 2 h, 100 µM in series [4] of 7 µM (≈ 4.08 µg/mL). The chromatographic logD in series [2] was found to be 2.9.

`Cc1ccc(NC(=O)c2ccc3c(c2)OCCO3)cc1NC(=O)c1ccc2nc(OCCCN3CCCCC3)ccc2c1` [Compound 24, N-(5-(2,3-Dihydrobenzo[b][1,4]dioxine-6-carboxamido)-2-methylphenyl)-2-(3-(piperidin-1-yl)propoxy)quinoline-6-carboxamide] came in with an intrinsic clearance (microsomal CLint) at 1 µM in series [1] of 24 µL/min/mg. In series [2], this compound had a chromatographic logD of 2.4.
